US11597727B2 (THE REGENTS OF THE UNIVERSITY OF CALIFORNIA, priority 2018, dated 2023)

Experiments:
renal fibrosis = conditions: administered by intraperitoneal (IP) injection; cited from earlier work
mouse tracheal rings = assay: IL-13 enhanced contraction in mouse tracheal rings ex vivo

In the case of `CC1(C)SCN(S(=O)(=O)c2ccccc2)[C@@H]1C(=O)N[C@@H](CNC(=O)NCc1ccccc1)C(=O)O`, the “in vivo efficacy in a mouse model of renal fibrosis” value (renal fibrosis) is listed as “greatly improved in vivo efficacy” and the “IL-13 enhanced contraction in mouse tracheal rings” value (mouse tracheal rings) is listed as “protects against IL-13 enhanced contraction”.
